Settings: human, in vivo, po

Q: For calcium citrate, which “Experimental value of serum calcium versus placebo” value is on record?
A: Significantly higher

Q: And the “Experimental value of urinary calcium versus placebo” value?
A: Significantly higher

From patent publication US20010003002A1 (priority 1999, published 2001)
